# Patent US9492413B2 (priority 2008, dated 2016)
# Columns and labels:
# [1] = mouse, in vivo
# [2] = human, in vivo
substance,measurement,setting,value
lysine-glycine-acetylsalicylate [LG-acetylsalicylate],body temperature,[1],No difference
same,changes of the body weight,[1],no significant difference
same,compatibility of inhalative application,[1],well compatible
same,organ weight of liver,[1],no significant difference
same,organ weight of spleen,[1],no significant difference
same,signs for liver toxicity,[1],no signs for a liver toxicity
same,systemic inflammation reactions,[1],no systemic inflammation reactions
same,subjectively perceived compatibility,[2],excellent
same,taste irritations,[2],No patient reported taste irritations
same,urge to cough,[2],no extra urge to cough
